Data as given in US20250215030A1, “STAT MODULATORS AND USES THEREOF” (Recludix Pharma, Inc., priority 2022, published 2025).

Protein sequences, listed by entry. Tags and fused reporters are not part of them. Residues count along the entry.
UniProt P42226, 123-658 limits assumed: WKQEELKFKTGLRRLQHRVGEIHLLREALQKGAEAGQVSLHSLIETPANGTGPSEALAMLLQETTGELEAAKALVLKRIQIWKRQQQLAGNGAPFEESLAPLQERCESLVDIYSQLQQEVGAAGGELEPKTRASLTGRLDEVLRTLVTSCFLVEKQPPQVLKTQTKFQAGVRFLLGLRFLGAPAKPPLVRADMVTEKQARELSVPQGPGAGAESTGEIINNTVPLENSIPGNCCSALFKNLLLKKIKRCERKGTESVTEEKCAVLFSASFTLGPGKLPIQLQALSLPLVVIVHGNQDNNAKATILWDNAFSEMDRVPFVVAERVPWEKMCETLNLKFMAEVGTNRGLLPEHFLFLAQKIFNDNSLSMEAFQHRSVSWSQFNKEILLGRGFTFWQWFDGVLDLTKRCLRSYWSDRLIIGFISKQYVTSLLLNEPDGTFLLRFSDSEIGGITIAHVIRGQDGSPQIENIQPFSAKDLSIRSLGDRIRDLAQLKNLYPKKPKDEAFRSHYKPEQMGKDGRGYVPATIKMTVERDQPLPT
UniProt P40763, 127-722 limits assumed: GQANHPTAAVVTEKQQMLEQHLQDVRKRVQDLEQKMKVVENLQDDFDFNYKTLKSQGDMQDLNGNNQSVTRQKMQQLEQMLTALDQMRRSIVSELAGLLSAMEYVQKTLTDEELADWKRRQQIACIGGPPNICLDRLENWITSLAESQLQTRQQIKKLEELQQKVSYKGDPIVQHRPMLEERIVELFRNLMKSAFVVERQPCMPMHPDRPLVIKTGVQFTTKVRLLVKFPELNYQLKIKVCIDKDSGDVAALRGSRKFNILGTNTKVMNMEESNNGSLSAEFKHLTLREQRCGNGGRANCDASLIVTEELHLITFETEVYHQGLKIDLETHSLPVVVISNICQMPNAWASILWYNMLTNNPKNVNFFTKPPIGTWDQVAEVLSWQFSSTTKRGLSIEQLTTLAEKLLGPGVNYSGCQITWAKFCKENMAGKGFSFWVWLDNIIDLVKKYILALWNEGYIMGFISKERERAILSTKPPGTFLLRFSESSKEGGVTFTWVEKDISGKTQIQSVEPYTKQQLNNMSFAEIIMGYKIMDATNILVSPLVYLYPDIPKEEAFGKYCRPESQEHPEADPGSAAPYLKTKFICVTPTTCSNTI

What was measured:
[1] = biological target: Recombinant STAT6 protein (STAT6(W123-T658)) (Homo sapiens, UniProt P42226); assay: STAT6 Fluorescence Polarization (FP) Assay; conditions: read-out: STAT6 (FP assay IC50); STAT6(W123-T658) 250 nM, probe 5-FAM-ApYKPFQDLI-NH2 2 nM, 45-minute incubation
Protocol: STAT6 Fluorescence Polarization (FP) Assay
An FP assay was developed to determine IC50 values for test substances. Recombinant STAT6 protein (STAT6(W123-T658)) at 250 nM was combined with a fluorescently labeled, phosphotyrosine peptide probe (5-FAM-ApYKPFQDLI-NH2) at 2 nM in FP buffer (10 mM HEPES pH 7.4, 50 mM NaCl, 1 mM EDTA, 0.05% Tween 20, 2 mM DTT). 50 μL of STAT6-probe mixture was added to serial diluted compounds in black, 96-well plates (Greiner BioOne 655076) to a final concentration of 1% DMSO. Reaction components were mixed, and FP was measured after 45-minute incubation at room temperature using a Tecan Spark multimode plate reader. FP signal (mP) was plotted against the log concentration of the test substances and IC50 values were calculated by nonlinear regression analysis using GraphPad Prism software. For STAT6 FP assay, A=≤300 nM; B=>300-3000 nM; C=>3-30 μM; and D=>30 μM.

[2] = biological target: Recombinant STAT3 protein (STAT3(G127-I722)) (Homo sapiens, UniProt P40763); assay: STAT3 Fluorescence Polarization (FP) Assay; conditions: read-out: STAT3 (FP assay IC50); STAT3(G127-I722) 25 nM, probe 5-FAM-GpYLPQTV-NH2 2 nM, 45-minute incubation
Protocol: STAT3 Fluorescence Polarization (FP) Assay
An FP assay was developed to determine IC50 values for test substances. Recombinant STAT3 protein (STAT3(G127-I722)) at 25 nM was combined with a fluorescently labeled, phosphotyrosine peptide probe (5-FAM-GpYLPQTV-NH2) at 2 nM in FP buffer (10 mM HEPES pH 7.4, 50 mM NaCl, 1 mM EDTA, 0.05% Tween 20, 2 mM DTT). 50 μL of STAT3-probe mixture was added to serial diluted compounds in black, 96-well plates (Greiner BioOne 655076) to a final concentration of 1% DMSO. Reaction components were mixed, and FP was measured after 45-minute incubation at room temperature using a Tecan Spark multimode plate reader. FP signal (mP) was plotted against the log concentration of the test substances and IC50 values were calculated by nonlinear regression analysis using GraphPad Prism software. For STAT3 FP assay, A=≤100 nM; B=>100-1000 nM; C=>1-10 μM; and D=>10 μM.

Compound | IC50 [1] [µM] | IC50 [2] [µM]
C[C@@]12C[C@H]3CC[C@@H](C(=O)N4CC(c5cccnc5)C4)N3C(=O)[C@@H](NC(=O)c3cc4cc(CP(=O)(O)O)ccc4s3)C[C@@H]1C2 | > 30 | 0.1 to 1
O=C(N[C@H]1C[C@H]2C[C@H]2C[C@H]2CC[C@@H](C(=O)N3CC(c4cccnc4)C3)N2C1=O)c1cc2cc(C(F)(F)P(=O)(O)O)ccc2s1 | 3 to 30 | < 0.1
